# Target: T1, E. coli LptB2FGC (Escherichia coli, UniProt P0ADC6+P0AF98)
# Sequences of proteins named here, by UniProt entry; tags and fusion partners are left off. A change or cut given only in a name is not applied to a line headed by its entry.
# UniProt P0ADC6: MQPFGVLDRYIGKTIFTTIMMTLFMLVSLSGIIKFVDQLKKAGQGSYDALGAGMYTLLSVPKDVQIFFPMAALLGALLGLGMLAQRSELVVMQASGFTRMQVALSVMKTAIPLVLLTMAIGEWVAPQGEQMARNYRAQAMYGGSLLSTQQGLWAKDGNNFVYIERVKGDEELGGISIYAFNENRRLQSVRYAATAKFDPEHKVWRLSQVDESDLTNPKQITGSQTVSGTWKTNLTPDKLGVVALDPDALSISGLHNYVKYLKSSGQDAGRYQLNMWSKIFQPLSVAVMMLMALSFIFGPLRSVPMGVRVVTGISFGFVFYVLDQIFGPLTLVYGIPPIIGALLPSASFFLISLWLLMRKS
# UniProt P0AF98: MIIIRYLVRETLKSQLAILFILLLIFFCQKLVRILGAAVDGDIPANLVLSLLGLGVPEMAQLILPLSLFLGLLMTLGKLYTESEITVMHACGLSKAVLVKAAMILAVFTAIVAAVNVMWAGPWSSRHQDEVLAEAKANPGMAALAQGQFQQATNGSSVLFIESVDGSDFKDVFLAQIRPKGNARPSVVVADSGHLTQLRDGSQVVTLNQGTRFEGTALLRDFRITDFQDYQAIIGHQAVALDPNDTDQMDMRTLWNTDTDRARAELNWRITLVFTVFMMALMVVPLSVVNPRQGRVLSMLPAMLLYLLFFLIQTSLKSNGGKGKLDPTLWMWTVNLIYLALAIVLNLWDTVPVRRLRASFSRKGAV
# T1 construct: made in house
# Experiment: LPS release assay, E. coli LptB2FGC
# Type: biochemical
# Conditions: purified E. coli LptB2FGC vs Acinetobacter LptB2FGC
smiles,measurement,value
"CN1C(=O)[C@H](CCCCN)NC(=O)[C@H](CCCN)NCc2cccnc2Sc2cccc(-c3ccc(C(=O)O)cc3)c2CNC(=O)[C@@H]1Cc1c[nH]c2ccccc12 [Compound 2, Zosurabalpin]",Fold more resistant to inhibition than Acinetobacter homologue,"more than 1,000 fold"
